scFv variants of Ab-14 (light chain) against a SARS-CoV-2 spike peptide

Target peptide (SARS-CoV-2 spike, HR2 region): PDVDLGDISGINAS

Ab-14 is the parent antibody, in scFv form: VH, then a (GGGGS)3 linker, then VL. The heavy chain is unchanged in all variants.
VH: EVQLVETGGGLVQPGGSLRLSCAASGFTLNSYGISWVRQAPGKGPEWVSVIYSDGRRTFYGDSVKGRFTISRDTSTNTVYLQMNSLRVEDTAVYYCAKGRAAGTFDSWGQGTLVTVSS
VL: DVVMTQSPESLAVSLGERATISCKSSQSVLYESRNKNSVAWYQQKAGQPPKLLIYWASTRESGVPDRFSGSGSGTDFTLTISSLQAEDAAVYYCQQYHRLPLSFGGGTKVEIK

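The starting antibody came from a phage panning campaign against this peptide. In library AAYL50, one, two or three CDR residues were substituted; doubles and triples were drawn at random. The assay is AlphaSeq: two haploid yeast populations carry antibody and antigen on their surface. Mating (16 h, 30 °C) was followed by selection of diploids and sequencing of their barcodes. A regression on co-assayed BCL2-family reference pairs converts the normalised counts of each replicate to an apparent Kd. The assay was run in three technical replicates.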

The whole VL of each variant is written out. The read-out is the apparent dissociation constant on a log10 scale (nM): the lower, the stronger. Averages over replicates are reported, and they cover detected replicates only. A pair that was not seen in that replicate is written "n.d."; this usually means weak binding, but a binder can also be missed. For reference, the parent read 0.65 as the reference entry and 1.68 as a member of this library. As a blank, each scFv also met three strains without target: over library AAYL50, 18% of these pairings were detected, typically at 4.19 and seldom below 2.99. For each scFv, signals with the empty controls are counted beside the result, with their mean in brackets.

| VL | log10 Kd, replicates | mean, log10 nM | empty controls |
|---|---|---|---|
| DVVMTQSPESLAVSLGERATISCKSSQSVSYESRNKNSVAWYQQKAGQPPKLLIYWASTRESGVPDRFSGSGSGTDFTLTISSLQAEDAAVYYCTQYHRLPLIFGGGTKVEIK | n.d. / 5.27 / 4.44 | 4.85 | 2 of 9 (3.46) |
| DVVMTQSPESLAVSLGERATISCKSSQSRLYESRNKNSVAWYQQKAGQPPKLLIYWASTRESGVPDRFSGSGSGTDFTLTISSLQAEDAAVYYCQQFHRRPLSFGGGTKVEIK | n.d. / n.d. / n.d. | n.d. | 2 of 9 (5.03) |
| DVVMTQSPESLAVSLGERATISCKSSQSVLYESRYKNSVAWYQQKAGQPPKLLIYWASTRTSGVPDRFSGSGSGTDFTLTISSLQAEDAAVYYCQQYHRTPLSFGGGTKVEIK | n.d. / n.d. / n.d. | n.d. | 0 of 9 |
| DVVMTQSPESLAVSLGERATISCKSSQSVLYEIRNKNSVAWYQQKAGQPPKLLIYWFSTREFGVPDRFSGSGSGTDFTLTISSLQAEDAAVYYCQQYHRLPLSFGGGTKVEIK | 4.54 / n.d. / 4.15 | 4.35 | 7 of 9 (4.83) |
| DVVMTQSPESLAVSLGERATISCKSSSSVLYCSRNKNSVAWYQQKAGQPPKLLIYCASTRESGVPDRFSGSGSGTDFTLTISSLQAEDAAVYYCQQYHRLPLSFGGGTKVEIK | n.d. / n.d. / n.d. | n.d. | 0 of 9 |
| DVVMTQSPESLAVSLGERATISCKSSWSVLYESRNKNSVAWYQQKAGQPPKLLIYWASTRESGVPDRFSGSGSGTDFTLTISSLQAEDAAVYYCQAHHRLPLSFGGGTKVEIK | n.d. / n.d. / n.d. | n.d. | 1 of 9 (3.24) |
| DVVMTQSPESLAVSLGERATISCKSSQSVLYESRNKNSVAWYQQKAGQPPKLLIYWASTREHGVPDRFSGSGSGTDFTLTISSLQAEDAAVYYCQQIHRLQLSFGGGTKVEIK | n.d. / n.d. / n.d. | n.d. | 0 of 9 |
| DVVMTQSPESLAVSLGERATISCKSEQSVLYESRNKDSVAWYQQKAGQPPKLLIYWASTRESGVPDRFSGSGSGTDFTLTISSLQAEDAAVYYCQQYHRLPLSFGGGTKVEIK | 1.00 / 1.08 / 1.25 | 1.11 | 0 of 9 |
| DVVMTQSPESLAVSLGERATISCTSSQSVLYESRNKNSWAWYQQKAGQPPKLLIYWASTRESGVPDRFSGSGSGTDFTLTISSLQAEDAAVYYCQAYHRLPLSFGGGTKVEIK | n.d. / n.d. / n.d. | n.d. | 1 of 9 (3.95) |
| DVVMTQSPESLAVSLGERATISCKSSQSVLYESRNKNSVAWYQQKAGQPPKLLIYWASTRVSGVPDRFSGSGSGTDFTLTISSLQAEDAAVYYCQQYPRLPLNFGGGTKVEIK | n.d. / n.d. / n.d. | n.d. | 0 of 9 |
| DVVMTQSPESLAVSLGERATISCKSSQSVLYESKNKNVVTWYQQKAGQPPKLLIYWASTRESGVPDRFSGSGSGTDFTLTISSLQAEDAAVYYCQQYHRLPLSFGGGTKVEIK | n.d. / n.d. / 3.40 | 3.40 | 0 of 9 |
| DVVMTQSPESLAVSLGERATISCKSSQSVLIESRNKNCVAWYQQKAGQPPKLLIYWASTRESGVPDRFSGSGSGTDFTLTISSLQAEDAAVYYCQQYHRLPLNFGGGTKVEIK | 3.06 / 2.74 / 2.57 | 2.79 | 3 of 9 (4.03) |
| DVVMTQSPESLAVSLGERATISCKSSQAVLKESRNKNSVAWYQQKAGQPPKLLIYWASTRESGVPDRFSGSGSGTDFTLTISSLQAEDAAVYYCQQYHRLPLSFGGGTKVEIK | 1.92 / 1.78 / 2.33 | 2.01 | 4 of 9 (3.76) |
| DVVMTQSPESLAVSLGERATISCKSSQSVLYKSRNKNSVVWYQQKAGQPPKLLIYWGSTRESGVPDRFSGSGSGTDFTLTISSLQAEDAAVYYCQQYHRLPLSFGGGTKVEIK | n.d. / n.d. / n.d. | n.d. | 0 of 9 |
| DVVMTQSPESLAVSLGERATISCKSSQSVLYEWRNKNSVAWYQQKAGQPPKLLIYWASTRESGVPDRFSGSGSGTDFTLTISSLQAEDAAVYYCIQYHRLPLSFGGGTKVEIK | n.d. / n.d. / 4.53 | 4.53 | 0 of 9 |
| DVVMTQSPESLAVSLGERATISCKSSQSVLYESINHNSVAWYQQKAGQPPKLLIYWASTRTSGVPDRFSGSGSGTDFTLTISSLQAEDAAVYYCQQYHRLPLSFGGGTKVEIK | 1.97 / 1.96 / 2.06 | 2.00 | 2 of 9 (4.15) |
| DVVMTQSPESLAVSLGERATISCKSSQSVLYESRNTNSVAWYQQKAGQPPKLLIYYASTRESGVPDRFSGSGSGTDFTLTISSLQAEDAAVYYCQQYSRLPLSFGGGTKVEIK | 0.21 / 0.44 / 0.28 | 0.31 | 1 of 9 (5.41) |
| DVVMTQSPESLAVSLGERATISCKSSGSVLYESRNKNPVAWYQQKAGQPPKLLIYNASTRESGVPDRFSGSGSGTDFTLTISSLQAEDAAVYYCQQYHRLPLSFGGGTKVEIK | 0.33 / 0.44 / 0.27 | 0.35 | 0 of 9 |
| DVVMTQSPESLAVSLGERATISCKSSQSVLYESRWFNSVAWYQQKAGQPPKLLIYWASTRESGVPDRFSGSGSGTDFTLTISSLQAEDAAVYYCQQFHRLPLSFGGGTKVEIK | 2.94 / 3.28 / 4.03 | 3.42 | 1 of 9 (4.05) |
| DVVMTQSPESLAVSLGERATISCKSSASVLYESRNKISVAWYQQKAGQPPKLLIYWASTRESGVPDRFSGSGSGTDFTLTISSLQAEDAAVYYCCQYHRLPLSFGGGTKVEIK | n.d. / n.d. / n.d. | n.d. | 0 of 9 |
| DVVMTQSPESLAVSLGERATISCKSSQHVLDESRNKNSVAWYQQKAGQPPKLLIYWASTQESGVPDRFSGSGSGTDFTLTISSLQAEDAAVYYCQQYHRLPLSFGGGTKVEIK | 1.32 / 1.43 / 1.41 | 1.39 | 3 of 9 (5.13) |
| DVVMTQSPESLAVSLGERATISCKSSQSVLYESFNKTSVAWYQQKAGQPPKLLIYWASTRWSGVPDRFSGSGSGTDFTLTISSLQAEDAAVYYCQQYHRLPLSFGGGTKVEIK | 2.96 / 3.15 / 3.40 | 3.17 | 4 of 9 (4.62) |
| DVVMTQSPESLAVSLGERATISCKSSQSVLYTSRWKNSVAWYQQKAGQPPKLLIYQASTRESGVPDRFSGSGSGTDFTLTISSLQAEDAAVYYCQQYHRLPLSFGGGTKVEIK | 2.34 / 2.13 / 2.21 | 2.23 | 2 of 9 (4.04) |
| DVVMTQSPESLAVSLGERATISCKSSQSVLYNSRNKNSVAWYQQKAGQPPKLLIYWADTRSSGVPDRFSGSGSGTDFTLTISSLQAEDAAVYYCQQYHRLPLSFGGGTKVEIK | 1.18 / 1.27 / 1.34 | 1.26 | 8 of 9 (4.29) |
| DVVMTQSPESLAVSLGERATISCWSSQSVLYESINKNSNAWYQQKAGQPPKLLIYWASTRESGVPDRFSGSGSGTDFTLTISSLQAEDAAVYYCQQYHRLPLSFGGGTKVEIK | n.d. / n.d. / n.d. | n.d. | 0 of 9 |

The first 3 variants above that were never detected:

VL,"log10 Kd, replicates","mean, log10 nM",empty controls
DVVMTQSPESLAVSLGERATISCKSSQSRLYESRNKNSVAWYQQKAGQPPKLLIYWASTRESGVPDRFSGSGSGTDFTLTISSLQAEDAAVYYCQQFHRRPLSFGGGTKVEIK,n.d. / n.d. / n.d.,n.d.,2 of 9 (5.03)
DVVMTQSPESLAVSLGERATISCKSSQSVLYESRYKNSVAWYQQKAGQPPKLLIYWASTRTSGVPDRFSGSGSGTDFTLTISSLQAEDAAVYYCQQYHRTPLSFGGGTKVEIK,n.d. / n.d. / n.d.,n.d.,0 of 9
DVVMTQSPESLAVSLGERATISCKSSSSVLYCSRNKNSVAWYQQKAGQPPKLLIYCASTRESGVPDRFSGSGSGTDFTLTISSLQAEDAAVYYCQQYHRLPLSFGGGTKVEIK,n.d. / n.d. / n.d.,n.d.,0 of 9

Source: Engelhart et al. 2022 (doi:10.1038/s41597-022-01779-4), MIT Lincoln Laboratory and A-Alpha Bio; data file from the FLAb repository.